Data on 21 compounds can be found in ChEMBL document CHEMBL1145968, “3-(alphaR)-alpha-((2S,5R)-4-allyl-2,5-dimethyl-1-piperazinyl)-3-hydroxybenzyl)-N-alkyl-N-arylbenzamides: potent, non-peptidic agonists of both the micro and delta opioid receptors” (J Med Chem, 2003).

Chains of the proteins cited; added tags and fusions are not shown.
UniProt P33535, whole entry: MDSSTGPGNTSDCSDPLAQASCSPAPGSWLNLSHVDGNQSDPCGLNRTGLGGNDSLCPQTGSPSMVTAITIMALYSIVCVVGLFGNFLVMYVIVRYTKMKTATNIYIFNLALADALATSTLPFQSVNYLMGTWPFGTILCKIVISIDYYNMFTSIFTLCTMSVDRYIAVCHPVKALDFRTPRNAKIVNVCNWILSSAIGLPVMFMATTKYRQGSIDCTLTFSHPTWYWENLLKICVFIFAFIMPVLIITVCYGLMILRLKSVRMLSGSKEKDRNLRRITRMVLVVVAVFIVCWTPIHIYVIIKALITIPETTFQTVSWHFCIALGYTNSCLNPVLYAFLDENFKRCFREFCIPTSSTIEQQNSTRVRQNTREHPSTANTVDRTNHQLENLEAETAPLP
UniProt P33533, whole entry: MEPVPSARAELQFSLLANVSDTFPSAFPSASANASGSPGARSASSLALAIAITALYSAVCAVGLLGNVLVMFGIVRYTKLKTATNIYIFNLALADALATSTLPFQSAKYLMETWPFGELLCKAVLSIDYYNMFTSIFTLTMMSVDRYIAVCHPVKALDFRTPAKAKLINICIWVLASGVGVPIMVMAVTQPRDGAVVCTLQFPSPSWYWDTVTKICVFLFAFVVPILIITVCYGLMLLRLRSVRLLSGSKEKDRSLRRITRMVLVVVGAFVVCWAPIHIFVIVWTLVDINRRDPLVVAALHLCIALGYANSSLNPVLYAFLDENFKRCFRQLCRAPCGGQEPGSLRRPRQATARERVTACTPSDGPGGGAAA

One test concerns the target Mu-type opioid receptor (Rattus norvegicus, UniProt P33535). Format: cell membranes, Membrane.
For test [1], the target named is Delta-type opioid receptor (Rattus norvegicus, UniProt P33533). Kind of test: Binding affinity of compound evaluated for Opioid receptor delta 1 isolated from rat brain.

One may read the Ki as the dissociation constant of the complex between target and ligand, obtained from inhibition or displacement. The low end stands for higher affinity, the high end for lower affinity. Regarding `C=CCN1C[C@H](C)N([C@@H](c2cccc(O)c2)c2cccc(C(=O)N(C)c3ccccc3F)c2)C[C@H]1C`, the Ki came out at 1.58 nM on Mu-type opioid receptor and 1.69 nM in test [1].

`C=CCN1C[C@H](C)N([C@@H](c2cccc(O)c2)c2cccc(C(=O)N(CC)c3ccc(F)cc3)c2)C[C@H]1C`: the results for the Ki (on Mu-type opioid receptor; in test [1]) were 7.08 nM and 6.95 nM, respectively.

In the case of `C=CCN1C[C@H](C)N([C@H](c2cccc(O)c2)c2cccc(C(=O)N(C)c3ccccc3)c2)C[C@H]1C`, the Ki on Mu-type opioid receptor is 1.55 nM; in test [1], 1.06 nM.

Turning to `C=CCN1C[C@H](C)N([C@@H](c2cccc(O)c2)c2cccc(C(=O)N(C)c3cccc(F)c3)c2)C[C@H]1C` (stereo in doubt; 24), the Ki at Mu-type opioid receptor turned out to be 0.46 nM.

Regarding `C=CCN1C[C@H](C)N([C@@H](c2cccc(O)c2)c2cccc(C(=O)N(CCCC)c3ccccc3)c2)C[C@H]1C`, the Ki came out at 8.88 nM on Mu-type opioid receptor and 9.2 nM in test [1].

Consider `C=CCN1C[C@H](C)N([C@@H](c2cccc(O)c2)c2cccc(C(=O)N(C)Cc3ccccc3)c2)C[C@H]1C`, for which the results for the inhibition constant (Ki) (on Mu-type opioid receptor; in test [1]) were 2.16 nM and 1.88 nM, respectively.

For the compound `C=CCN1C[C@H](C)N([C@@H](c2cccc(O)c2)c2cccc(C(=O)N(C)c3ccc(OC)cc3)c2)C[C@H]1C`, the affinity on Mu-type opioid receptor, expressed as Ki, was 2.35 nM.

In the case of `C=CCN1C[C@H](C)N([C@@H](c2cccc(O)c2)c2cccc(C(=O)N(C)CCc3ccccc3)c2)C[C@H]1C`, the figures for the Ki (at Mu-type opioid receptor; in test [1]) were 2.19 nM and 1.75 nM, respectively.

In turn, `C=CCN1C[C@H](C)N([C@H](c2cccc(O)c2)c2cccc(C(=O)N(CC)CC)c2)C[C@H]1C` showed a Ki at Mu-type opioid receptor of 3.2 nM.

`C=CCN1C[C@H](C)N([C@@H](c2cccc(O)c2)c2cccc(C(=O)N(CCC)c3ccccc3)c2)C[C@H]1C`: the Ki at Mu-type opioid receptor was 1.82 nM.

As for `C=CCN1C[C@H](C)N([C@@H](c2cccc(O)c2)c2cccc(C(=O)N(C)c3ccccc3C(F)(F)F)c2)C[C@H]1C`, the Ki on Mu-type opioid receptor is 2.74 nM; in test [1], 2.31 nM.

On to `C=CCN1C[C@H](C)N([C@@H](c2cccc(O)c2)c2cccc(C(=O)N(C)c3ccc(F)cc3)c2)C[C@H]1C`, for which the Ki at Mu-type opioid receptor was 1.49 nM.

Compound `C=CCN1C[C@H](C)N([C@@H](c2cccc(O)c2)c2cccc(C(=O)N3CCCc4ccccc43)c2)C[C@H]1C` displayed a Ki on Mu-type opioid receptor of 2.55 nM.

Regarding `C=CCN1C[C@H](C)N([C@@H](c2cccc(O)c2)c2cccc(C(=O)N(C)c3ccc([N+](=O)[O-])cc3)c2)C[C@H]1C`, the Ki on Mu-type opioid receptor was found to be 2.78 nM; in test [1], 2.41 nM.

`C=CCN1C[C@H](C)N(C(c2ccc(C(=O)N(CC)CC)cc2)c2cccc(O)c2)C[C@H]1C` (single isomer, unassigned) showed a Ki at Mu-type opioid receptor of 15 nM.

Regarding `C=CCN1C[C@H](C)N([C@@H](c2cccc(O)c2)c2cccc(C(=O)N(C)c3ccccc3)c2)C[C@H]1C`, the Ki at Mu-type opioid receptor was found to be 1.06 nM.

Turning to `C=CCN1C[C@H](C)N([C@@H](c2cccc(O)c2)c2cccc(C(=O)N(C)c3cccc(F)c3)c2)C[C@H]1C` (stereo in doubt; 32), the affinity at Mu-type opioid receptor corresponds to a Ki of 7.56 nM.

With `C=CCN1C[C@H](C)N([C@@H](c2cccc(O)c2)c2cccc(C(=O)N(CCC)c3ccc(F)cc3)c2)C[C@H]1C`, the affinity on Mu-type opioid receptor corresponds to a Ki of 7.06 nM.

Regarding `C=CCN1C[C@H](C)N([C@@H](c2cccc(O)c2)c2cccc(C(=O)N(C)c3ccc(Cl)cc3)c2)C[C@H]1C`, at Mu-type opioid receptor, the affinity, expressed as Ki, was 3.46 nM.

Compound `C=CCN1C[C@H](C)N([C@@H](c2cccc(O)c2)c2cccc(C(=O)N(CC)c3ccccc3)c2)C[C@H]1C` had a Ki on Mu-type opioid receptor of 3.39 nM.

In the case of `C=CCN1C[C@H](C)N([C@@H](c2cccc(O)c2)c2cccc(C(=O)N(c3ccccc3)C3CC3)c2)C[C@H]1C`, the Ki on Mu-type opioid receptor stood at 2.37 nM.
